Assay results published in ChEMBL document CHEMBL1131470, “Inhibition of human O6-alkylguanine-DNA alkyltransferase and potentiation of the cytotoxicity of chloroethylnitrosourea by 4(6)-(benzyloxy)-2,6(4)-diamino-5-(nitro or nitroso)pyrimidine derivatives and analogues” (J Med Chem, 1998).

Target: T1, Methylated-DNA--protein-cysteine methyltransferase (Homo sapiens, UniProt P16455)
T1 sequence (P16455 whole entry): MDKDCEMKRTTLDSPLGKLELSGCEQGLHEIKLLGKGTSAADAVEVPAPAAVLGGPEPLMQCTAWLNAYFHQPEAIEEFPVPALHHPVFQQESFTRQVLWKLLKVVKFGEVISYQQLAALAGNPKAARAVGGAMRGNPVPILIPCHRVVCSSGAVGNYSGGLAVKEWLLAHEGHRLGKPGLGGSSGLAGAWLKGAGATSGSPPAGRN
Experiment: In vitro inhibitory activity against human O6-alkylguanine-DNA alkyltransferase (AGAT)

## Nc1nc(OCc2ccccc2)c2[nH]cnc2n1 [6-O-BENZYLGUANINE]
  IC50: 2600 nM
